What follows are compounds tested against T1, Protein deacetylase HDAC6 (Homo sapiens) (UniProt Q9UBN7) (assay: Potency index, ratio of SAHA IC50 to compound IC50 for recombinant full length human HDAC6 expressed in Baculovirus infected Sf9 cells).
T1 sequence (whole entry): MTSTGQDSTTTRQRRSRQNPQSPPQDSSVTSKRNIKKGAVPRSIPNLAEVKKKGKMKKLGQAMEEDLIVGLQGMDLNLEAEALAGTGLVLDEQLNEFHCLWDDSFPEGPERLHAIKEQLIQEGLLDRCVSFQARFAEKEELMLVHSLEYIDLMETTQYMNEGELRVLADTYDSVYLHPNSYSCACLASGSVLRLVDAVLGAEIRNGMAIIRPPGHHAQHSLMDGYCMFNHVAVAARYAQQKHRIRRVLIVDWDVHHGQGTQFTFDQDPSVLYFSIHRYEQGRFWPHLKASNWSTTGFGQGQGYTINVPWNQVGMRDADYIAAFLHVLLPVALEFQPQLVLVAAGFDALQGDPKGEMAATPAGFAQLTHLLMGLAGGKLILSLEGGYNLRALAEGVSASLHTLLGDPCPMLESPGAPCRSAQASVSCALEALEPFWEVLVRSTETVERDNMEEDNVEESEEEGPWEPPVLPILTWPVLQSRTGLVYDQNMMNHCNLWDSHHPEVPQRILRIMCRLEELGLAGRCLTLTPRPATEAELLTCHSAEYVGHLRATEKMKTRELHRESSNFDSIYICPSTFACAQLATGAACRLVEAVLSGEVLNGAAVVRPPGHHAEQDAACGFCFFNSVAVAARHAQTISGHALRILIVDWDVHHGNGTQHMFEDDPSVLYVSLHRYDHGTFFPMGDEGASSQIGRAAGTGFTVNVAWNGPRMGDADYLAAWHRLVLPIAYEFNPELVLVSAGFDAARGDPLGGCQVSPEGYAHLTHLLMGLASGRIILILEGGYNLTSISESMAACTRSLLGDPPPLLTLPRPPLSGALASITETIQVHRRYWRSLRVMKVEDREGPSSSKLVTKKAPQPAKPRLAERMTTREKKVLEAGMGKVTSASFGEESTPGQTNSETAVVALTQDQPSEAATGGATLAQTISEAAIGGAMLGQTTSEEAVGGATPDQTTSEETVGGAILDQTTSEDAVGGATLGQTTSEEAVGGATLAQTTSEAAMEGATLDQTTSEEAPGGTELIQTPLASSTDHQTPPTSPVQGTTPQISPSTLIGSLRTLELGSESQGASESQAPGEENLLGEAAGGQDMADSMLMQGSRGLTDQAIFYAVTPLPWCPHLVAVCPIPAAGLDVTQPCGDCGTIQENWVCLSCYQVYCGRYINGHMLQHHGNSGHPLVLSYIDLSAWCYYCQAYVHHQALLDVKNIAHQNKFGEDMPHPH

Ratio IC50, 8:
O=C(CCCCCCNC(=O)Cn1cnc2c(Nc3ccccc3)nc(Nc3ccccc3)nc21)NO
O=C(CCCCCNC(=O)Cn1cnc2c(N3CCOCC3)nc(Nc3ccccc3)nc21)NO
O=C(CCCCCNC(=O)Cn1cnc2c(Nc3ccccc3)nc(Nc3ccccc3)nc21)NO
